Test results taken from ChEMBL document CHEMBL4706772, “Structure-Based Design of A-1293102, a Potent and Selective BCL-X Inhibitor” (ACS Med Chem Lett, 2021).

The chains behind the UniProt entries cited, without tags or fusion partners.
UniProt P10415, whole entry: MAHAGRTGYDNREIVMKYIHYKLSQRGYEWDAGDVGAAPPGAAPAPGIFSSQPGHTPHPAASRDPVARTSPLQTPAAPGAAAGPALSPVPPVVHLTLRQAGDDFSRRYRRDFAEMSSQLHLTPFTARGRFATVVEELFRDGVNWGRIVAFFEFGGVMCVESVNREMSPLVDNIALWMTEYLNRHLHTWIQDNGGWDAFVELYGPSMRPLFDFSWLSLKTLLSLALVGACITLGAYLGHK

Target: Apoptosis regulator Bcl-2 (Homo sapiens, UniProt P10415)
Assay: Inhibition of F-Bak binding to GST-tagged BCL2 (unknown origin) measured after 1 hr by TR-FRET assay

Ki: < 0.1 nM
SMILES: CC1(C)CCC(c2ccc(Cl)cc2)=C(CN2CCN(c3ccc(C(=O)NS(=O)(=O)c4ccc(N[C@H](CCN5CCOCC5)CSc5ccccc5)c(S(=O)(=O)C(F)(F)F)c4)cc3)CC2)C1 [NAVITOCLAX]
